Test results from ChEMBL document CHEMBL1926646, “Discovery and pharmacological characterization of N-[2-({2-[(2S)-2-cyanopyrrolidin-1-yl]-2-oxoethyl}amino)-2-methylpropyl]-2-methylpyrazolo[1,5-a]pyrimidine-6-carboxamide hydrochloride (anagliptin hydrochloride salt) as a potent and selective DPP-IV inhibitor” (Bioorg Med Chem, 2011).

Amino acid sequences for entries named in this document (tags omitted).
UniProt P27487, whole entry: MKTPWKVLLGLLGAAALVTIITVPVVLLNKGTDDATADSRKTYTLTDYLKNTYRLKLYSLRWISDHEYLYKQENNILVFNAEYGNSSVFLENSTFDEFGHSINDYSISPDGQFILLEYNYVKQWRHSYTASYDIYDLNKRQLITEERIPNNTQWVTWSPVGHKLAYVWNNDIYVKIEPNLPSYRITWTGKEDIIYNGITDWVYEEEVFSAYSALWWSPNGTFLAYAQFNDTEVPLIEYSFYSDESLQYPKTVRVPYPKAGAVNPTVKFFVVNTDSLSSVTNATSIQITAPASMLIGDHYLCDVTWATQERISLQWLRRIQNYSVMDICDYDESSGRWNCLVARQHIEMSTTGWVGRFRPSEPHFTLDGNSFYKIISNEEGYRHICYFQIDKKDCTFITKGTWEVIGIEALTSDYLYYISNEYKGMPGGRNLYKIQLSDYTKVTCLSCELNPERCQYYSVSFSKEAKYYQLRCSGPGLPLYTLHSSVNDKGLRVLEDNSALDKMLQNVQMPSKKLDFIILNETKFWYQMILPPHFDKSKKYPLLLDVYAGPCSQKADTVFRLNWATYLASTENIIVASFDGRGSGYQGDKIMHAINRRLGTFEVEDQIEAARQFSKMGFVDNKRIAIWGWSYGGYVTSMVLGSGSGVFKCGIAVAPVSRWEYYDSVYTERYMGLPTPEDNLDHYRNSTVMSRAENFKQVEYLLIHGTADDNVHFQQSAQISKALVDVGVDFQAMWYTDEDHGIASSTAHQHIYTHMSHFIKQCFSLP

Columns and labels:
Prolyl endopeptidase FAP = molecular target: T1, Prolyl endopeptidase FAP (Homo sapiens, UniProt Q12884); experiment: biochemical
T1 sequence (Q12884 whole entry): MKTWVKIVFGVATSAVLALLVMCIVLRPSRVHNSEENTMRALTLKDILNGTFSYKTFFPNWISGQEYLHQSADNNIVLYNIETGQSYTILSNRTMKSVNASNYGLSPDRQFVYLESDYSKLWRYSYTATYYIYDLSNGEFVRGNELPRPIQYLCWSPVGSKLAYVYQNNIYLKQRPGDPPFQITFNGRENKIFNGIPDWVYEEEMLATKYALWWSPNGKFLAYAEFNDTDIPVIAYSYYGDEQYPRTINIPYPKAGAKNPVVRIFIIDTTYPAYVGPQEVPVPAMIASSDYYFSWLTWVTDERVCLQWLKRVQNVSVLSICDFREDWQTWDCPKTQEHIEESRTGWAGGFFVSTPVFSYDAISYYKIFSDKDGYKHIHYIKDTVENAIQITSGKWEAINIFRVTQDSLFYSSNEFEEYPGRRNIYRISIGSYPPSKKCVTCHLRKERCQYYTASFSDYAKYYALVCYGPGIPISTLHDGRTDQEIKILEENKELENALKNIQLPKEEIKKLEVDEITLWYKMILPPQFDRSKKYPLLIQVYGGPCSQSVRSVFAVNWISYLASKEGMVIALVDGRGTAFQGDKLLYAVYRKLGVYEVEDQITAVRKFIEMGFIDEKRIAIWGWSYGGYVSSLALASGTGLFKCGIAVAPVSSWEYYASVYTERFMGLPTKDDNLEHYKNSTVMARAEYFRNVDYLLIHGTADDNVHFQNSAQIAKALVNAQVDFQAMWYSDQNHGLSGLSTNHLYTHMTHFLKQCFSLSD

Dipeptidyl peptidase 4 = Dipeptidyl peptidase 4 (Homo sapiens, UniProt P27487)

IC50 (Prolyl endopeptidase FAP)	IC50 (Dipeptidyl peptidase 4)	SMILES
72.7 µM		Cc1cc2ncc(C(=O)NCC(C)(C)NCC(=O)N3CCC[C@H]3C#N)cn2n1 [ANAGLIPTIN]
	0.0038 µM	Cc1cc2ncc(C(=O)NCC(C)(C)NCC(=O)N3CCC[C@H]3C#N)cn2n1.Cl [ANAGLIPTIN HYDROCHLORIDE]
